# Literature values, collected in patent US12311056B2, “Composition and method for treatment of neuropsychiatric disorders” (Duke University, priority 2015, dated 2025).
# Settings: in vivo; cited from earlier work
smiles,measurement,value
CN1CCN2c3ncccc3Cc3ccccc3[C@H]2C1 [esmirtazapine],Brain accumulation in comparison with the R(−) enantiomer,may accumulated more in the brain
